Results reported in US20230146829A1 (priority 2020, published 2023).

Amino acid sequences for entries named in this document (tags omitted).
UniProt P10275, whole entry T878A: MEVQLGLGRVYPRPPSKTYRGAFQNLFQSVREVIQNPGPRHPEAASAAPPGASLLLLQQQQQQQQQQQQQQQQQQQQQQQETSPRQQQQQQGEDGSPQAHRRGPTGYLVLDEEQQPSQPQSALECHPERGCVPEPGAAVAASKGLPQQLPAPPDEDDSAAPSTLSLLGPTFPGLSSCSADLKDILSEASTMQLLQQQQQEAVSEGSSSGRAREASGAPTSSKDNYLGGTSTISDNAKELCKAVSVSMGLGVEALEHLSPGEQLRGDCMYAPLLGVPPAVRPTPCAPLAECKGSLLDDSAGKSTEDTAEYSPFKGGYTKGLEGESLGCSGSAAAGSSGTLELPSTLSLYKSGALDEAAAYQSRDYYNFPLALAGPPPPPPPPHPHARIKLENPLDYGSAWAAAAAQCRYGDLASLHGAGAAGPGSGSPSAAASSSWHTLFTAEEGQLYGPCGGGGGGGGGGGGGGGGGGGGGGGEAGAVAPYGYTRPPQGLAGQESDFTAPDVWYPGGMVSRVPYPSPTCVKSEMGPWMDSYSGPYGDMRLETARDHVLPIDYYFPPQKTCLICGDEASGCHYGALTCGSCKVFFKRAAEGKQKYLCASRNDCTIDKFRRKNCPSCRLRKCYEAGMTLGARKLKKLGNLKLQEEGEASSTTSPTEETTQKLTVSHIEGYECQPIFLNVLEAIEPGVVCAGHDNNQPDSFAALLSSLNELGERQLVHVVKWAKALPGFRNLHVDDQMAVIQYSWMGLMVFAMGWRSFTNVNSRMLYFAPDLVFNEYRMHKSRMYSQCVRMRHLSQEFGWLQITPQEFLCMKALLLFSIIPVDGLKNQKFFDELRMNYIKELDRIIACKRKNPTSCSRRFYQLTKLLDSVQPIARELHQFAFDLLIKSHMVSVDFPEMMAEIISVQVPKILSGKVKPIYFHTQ

How the values were obtained:
AR wildtype (wt) = AR wildtype (wt) (Homo sapiens, UniProt P10275)
[1] = target: AR full length (AR FL) in LNCaP cells (Homo sapiens, UniProt P10275, T878A)

| SMILES | Wt. IC50 (AR wildtype (wt)) | SARD Activity Full Length % degradation at 1 μM [1] | SARD Activity Full Length % degradation at 10 μM [1] |
| --- | --- | --- | --- |
| CC(C)(C)OC(=O)NCc1cnn(C[C@](C)(O)C(=O)Nc2cnc(C#N)c(C(F)(F)F)c2)c1 [Compound 1079, (S)-tert-Butyl ((1-(3-((6-cyano-5-(trifluoromethyl)pyridin-3-yl)amino)-2-hydroxy-2-methyl-3-oxopropyl)-1H-pyrazol-4-yl)methyl)carbamate] | No effect | – | – |
| C[C@](O)(Cn1ccc2cc(F)ccc21)C(=O)Nc1cnc(C#N)c(C(F)(F)F)c1 [Compound 47] | – | 57, 97% | 57, 97% |
